{
  "sequences": {"note": "By UniProt entry, the sequences of proteins in these tests, tags left out. Residues count along the entry.", "UniProt P29338, 2-217 limits assumed": "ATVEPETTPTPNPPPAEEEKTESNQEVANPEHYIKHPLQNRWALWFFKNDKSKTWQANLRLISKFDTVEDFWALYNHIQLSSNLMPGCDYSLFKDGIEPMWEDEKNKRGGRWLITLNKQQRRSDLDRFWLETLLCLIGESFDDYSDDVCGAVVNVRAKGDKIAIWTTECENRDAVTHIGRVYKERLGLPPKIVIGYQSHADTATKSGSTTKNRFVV"},
  "source": "patent US6410715",
  "about": "(QUESTCOR PHARMACEUTICALS, dated 2002)",
  "binders": {"B1": {"name": "GST-4E-BP1 fusion protein (other, not shown: a dimerising Fc or GST; large carriers; small tags and cut ends)", "chain": "GSSCSQTPSRAIPATRRVVLGDGVQLPPGDYSTTPGGTLFSTTPGGTRIIYDRKFLMECRNSPVTKTPPRDLPTIPGVTSPSSDEPPMEASQSHLRNSPEDKRAGGEESQFEMDI"}},
  "target": "eIF-4E of rabbit reticulocyte lysate (rabbit, UniProt P29338)",
  "assay": "cell-based or functional assay",
  "data": [
    {"binder": "B1", "values": [
      {"measurement": "inhibition of translation of CAT (cap-dependent)", "result": "~5", "unit": "fold"}
    ]}
  ]
}
